From patent US20140303092A1, “HEXADECYLOXYPROPYL CIDOFOVIR FOR THE TREATMENT OF DOUBLE-STRANDED DNA VIRUS INFECTION” (CHIMERIX, INC., priority 2011, published 2014)

Assay: Study HDP-CDV-112: mass balance and metabolite profiling of 14C-radiolabeled HDP-CDV
Conditions: drug-derived metabolites

(3-propoxy)acetic acid ester of CDV [CMX104]
percent dose excreted in urine: 3%
